Laboratory results from publication PMC2425476 (Nucleic Acids Research, 2008).
Changes are numbered by the printed parent chain. Read-outs that look alike come from different tables or passages of the source.

T1: γ subunit of the E. coli clamp loader (γ complex) (Escherichia coli, UniProt P06710-2 1-431)
T1 sequence: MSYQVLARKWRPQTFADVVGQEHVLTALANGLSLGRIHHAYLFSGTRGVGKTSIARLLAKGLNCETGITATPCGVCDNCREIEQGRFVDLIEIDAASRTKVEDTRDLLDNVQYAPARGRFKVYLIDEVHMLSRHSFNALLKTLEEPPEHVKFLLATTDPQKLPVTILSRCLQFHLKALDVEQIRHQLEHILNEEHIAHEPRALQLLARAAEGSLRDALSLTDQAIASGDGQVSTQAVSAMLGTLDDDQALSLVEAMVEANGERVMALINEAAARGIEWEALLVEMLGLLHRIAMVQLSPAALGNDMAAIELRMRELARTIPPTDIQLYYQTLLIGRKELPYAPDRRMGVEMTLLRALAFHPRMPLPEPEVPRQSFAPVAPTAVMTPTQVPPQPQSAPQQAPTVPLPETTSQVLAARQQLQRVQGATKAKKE

T2: δ subunit R277A mutant (Escherichia coli, UniProt P28630 1-343, R277A)
T2 sequence: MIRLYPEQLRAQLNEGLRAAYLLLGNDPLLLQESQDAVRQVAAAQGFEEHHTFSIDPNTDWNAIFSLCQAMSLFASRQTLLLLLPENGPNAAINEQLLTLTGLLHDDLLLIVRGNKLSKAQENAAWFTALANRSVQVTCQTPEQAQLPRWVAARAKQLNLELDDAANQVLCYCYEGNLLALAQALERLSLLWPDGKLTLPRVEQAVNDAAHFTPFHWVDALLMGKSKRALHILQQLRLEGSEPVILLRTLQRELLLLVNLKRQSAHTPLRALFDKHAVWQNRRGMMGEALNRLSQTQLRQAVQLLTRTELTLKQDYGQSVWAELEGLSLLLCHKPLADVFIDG

T3: δ subunit W279A/R277A double mutant (Escherichia coli, UniProt P28630 1-343, R277A | W279A)
T3 sequence: T2 sequence with W279A

T4: δ subunit R283A mutant (Escherichia coli, UniProt P28630 1-343, R283A)
T4 sequence: T2 sequence with A277R, R283A

T5: δ subunit W279Y mutant (Escherichia coli, UniProt P28630 1-343, W279Y)
T5 sequence: T2 sequence with A277R, W279Y

T6: δ subunit W279A/R283A double mutant (Escherichia coli, UniProt P28630 1-343, W279A | R283A)
T6 sequence: T2 sequence with A277R, W279A, R283A

T7: δ subunit W279A mutant (Escherichia coli, UniProt P28630 1-343, W279A)
T7 sequence: T2 sequence with A277R, W279A

B1: δ subunit of the E. coli clamp loader (γ complex), wild type (natural protein)
chain: T2 sequence with A277R
B2: χ subunit of the E. coli clamp loader (γ complex) (natural protein)
chain: MKNATFYLLDNDTTVDGLSAVEQLVCEIAAERWRSGKRVLIACEDEKQAYRLDEALWARPAESFVPHNLAGEGPRGGAPVEIAWPQKRSSSRRDILISLRTSFADFATAFTEVVDFVPYEDSLKQLARERYKAYRVAGFNLNTATWK
B3: ψ subunit of the E. coli clamp loader (γ complex) (natural protein)
chain: MTSRRDWQLQQLGITQWSLRRPGALQGEIAIAIPAHVRLVMVANDLPALTDPLVSDVLRALTVSPDQVLQLTPEKIAMLPQGSHCNSWRLGTDEPLSLEGAQVASPALTDLRANPTARAALWQQICTYEHDFFPRND
B4: δ′ subunit of the E. coli clamp loader (γ complex) (natural protein)
chain: MRWYPWLRPDFEKLVASYQAGRGHHALLIQALPGMGDDALIYALSRYLLCQQPQGHKSCGHCRGCQLMQAGTHPDYYTLAPEKGKNTLGVDAVREVTEKLNEHARLGGAKVVWVTDAALLTDAAANALLKTLEEPPAETWFFLATREPERLLATLRSRCRLHYLAPPPEQYAVTWLSREVTMSQDALLAALRLSAGSPGAALALFQGDNWQARETLCQALAYSVPSGDWYSLLAALNHEQAPARLHWLATLLMDALKRHHGAAQVTNVDVPGLVAELANHLSPSRLQAILGDVCHIREQLMSVTGINRELLITDLLLRIEHYLQPGVVLPVPHL

Legend:
[1] = molecular target: T1, γ subunit of the E. coli clamp loader …
[2] = molecular target: T2, δ subunit R277A mutant
[3] = molecular target: T3, δ subunit W279A/R277A double mutant
[4] = molecular target: T4, δ subunit R283A mutant
[5] = molecular target: B1
[6] = molecular target: T5, δ subunit W279Y mutant
[7] = molecular target: T6, δ subunit W279A/R283A double mutant
[8] = molecular target: T7, δ subunit W279A mutant
[9] = molecular target: T7, δ subunit W279A mutant; remark: listed apart in the source

Measured: binding result

B1
binds: [1]

B2
not listed: [1] | [9]
binds: all other assays above

B3
not listed: [1] | [9]
binds: all other assays above

B4
not listed: [1] | [8]
binds: all other assays above
